Apparent affinities of Ab-14 variants for a coronavirus HR2 peptide

Data: MIT Lincoln Laboratory AlphaSeq set, Li et al. 2023, doi:10.1038/s41467-023-39022-2, as distributed in FLAb.

The target is the same throughout: PDVDLGDISGINAS, from the HR2 region of SARS-CoV-2 spike.

Parent: Ab-14, a human scFv built as VH, a 15-residue (Gly4Ser)3 linker, VL. Only the CDRs of the light chain vary.
VH: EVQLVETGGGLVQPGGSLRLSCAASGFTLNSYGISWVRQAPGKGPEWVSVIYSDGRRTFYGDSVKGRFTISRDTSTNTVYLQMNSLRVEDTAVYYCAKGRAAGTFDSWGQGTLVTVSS
VL: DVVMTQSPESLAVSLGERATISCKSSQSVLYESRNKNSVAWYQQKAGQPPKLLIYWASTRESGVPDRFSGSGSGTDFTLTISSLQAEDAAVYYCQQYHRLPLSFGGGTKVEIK

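Phage display of a naive human antibody library on the peptide gave the parent. This is the validation round: designs drawn from the data on random variants, tested in the same kind of assay. Group labels follow the data file (Ctrl: baseline library sampled from a position-specific scoring matrix, with some repeated check sequences; Rand: our label for a block that the file lists under HC and that is probably the random mutants of the ten best first-round binders; En: ensemble of fine-tuned language models; GP: Gaussian process model; GPLM: also part of the Gaussian process libraries; HC: hill climbing; Gen: genetic algorithm; Gibbs: Gibbs sampling; a sequence that several methods proposed may carry one label only). AlphaSeq pools MATa yeast showing the antibodies with MATalpha yeast showing the peptide. Pairs that bind mate more often; barcode pairs of the diploids are counted by sequencing. A regression on co-assayed BCL2-family reference pairs converts the normalised counts of each replicate to an apparent Kd. The assay was run in six technical replicates.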

The parent's light chain CDRs are KSSQSVLYESRNKNSVA, WASTRES, QQYHRLPLS; each variant's own CDRs replace them letter for letter. Each Kd is an estimate from the mating assay, the geometric mean of the replicates in which the pair was seen; lower is stronger. An entry "nd" has no value in the source: the pair was not observed among the diploids in any replicate. This suggests poor binding but is not conclusive. The authors' rule: three or more of the six replicates give a measured affinity, fewer mean a poor binder.

With KLSGSMLYESRNKNSVA | NASQRES | QQYHRLPLS [GP_Gen] the result was 550 pM (6 of 6 replicates).
With KLSQQWLYESRNKNSVA | SASTREE | QQYHRLPLS [GP_HC] the result was 490 pM (6 of 6 replicates).
With KVSQSVLYESRNKNCVA | WASTRES | QQYSRLPLS [Ctrl] the result was 49 nM (6 of 6 replicates).
With KQSQSVLYESRNKNSVA | DASTRES | QQYHRLPLT [GPLM_HC] the result was 2.7 nM (6 of 6 replicates).
With KVMQSVNGLQRAKNSVA | EASTRES | QQYHRLPLS [GP_Gibbs] the result was 2.6 nM (6 of 6 replicates).
With KSSQSVLFESRNKNSVA | DASTRES | QQYHRLCLS [Rand] the result was 2.8 nM (6 of 6 replicates).
With WFSQSVLYESRNKNSVA | WASTRES | QQYHRLPLS [Ctrl] the result was 310 nM (2 of 6 replicates).
With KSEQSVLYESRHKNSVA | DASTRLS | QQYHDLPLS [Ctrl] the result was 15 nM (5 of 6 replicates).
With IVSQLMLWGMHAKNSIA | EAETRPN | QQYDRLPLI [En_Gen] the result was nd (0 of 6 replicates).
With KLQQSMEYESRWHNSVA | HASVRLD | QQYHRLPLS [GP_Gibbs] the result was 7.5 nM (6 of 6 replicates).
With IISQSVMFQQTLINSVA | NAQTREA | QQYHRLPLS [En_HC] the result was 1.3 nM (6 of 6 replicates).
With NVHALMNHSSEFQNSIA | DEECRDA | QQYFRLPLS [En_Gibbs] the result was 11 nM (6 of 6 replicates).
With KQQISVDQESRQKNSVA | NASQREE | QQYHRLPLS [GP_Gibbs] the result was 1.8 nM (6 of 6 replicates).
With NLSWKTIMQNMDSYAVA | QTEQREA | QQYAILPLS [En_Gibbs] the result was nd (0 of 6 replicates).
With AVSIEHMENTAIWNAIA | DTSLRNN | QQYYQLPLS [En_Gibbs] the result was 1.5 µM (2 of 6 replicates).
With KLTMITGLEKVSGNNVA | EMETRER | QQYNRLPLS [En_Gen] the result was 2.2 nM (6 of 6 replicates).
With HLSQSVLYESRNKNSVA | NASTRLS | QQYHRLPLS [GP_Gen] the result was 390 pM (6 of 6 replicates).
With KSSQSYHYESRNKNSVA | NASTRES | QQYHRLPLS [GP_HC] the result was 3.8 nM (6 of 6 replicates).
With KSSQSQLYQSRDKNSVA | WASTRES | QQYHRLPLS [Ctrl] the result was 170 nM (3 of 6 replicates).
With KSSQSVLYESRNKNSVA | WASTREE | QQYHRLPLS [Ctrl] the result was nd (0 of 6 replicates).
With HSSQSVLYESRNKNSVA | WASTRES | QQYHRLPLS [Ctrl] the result was 530 nM (2 of 6 replicates).
With KISMEPLVEENHAQAIA | DAHASYI | QQYFHLPLY [En_Gibbs] the result was 15 nM (6 of 6 replicates).
With KLPHLSFVHDREKNNVA | DLNVKCA | QQYDRLPLA [En_Gibbs] the result was 1.3 nM (6 of 6 replicates).

Further variants, results first:

1.1 nM (6 of 6 replicates) for HMSESEHGDNVGVGNMA | NAHETVA | QQYHHLPLS [En_Gibbs].
400 pM (6 of 6 replicates) for KMSQSNLYESRNKNSVA | NASTRES | QQYHRLPLS [GP_Gen].
430 pM (6 of 6 replicates) for KFSQKVLYEGRTKNSVA | NASTREQ | QQYHRLPLS [GP_HC].
5.1 nM (6 of 6 replicates) for KQSQSQLYEDGNGNSVA | NASVRES | QQYHRLPLS [GP_Gibbs].
13 nM (6 of 6 replicates) for KISFQYRYEQLAKNSIA | EVQTRLK | QQYHRLPLS [En_HC].
690 pM (6 of 6 replicates) for KISQSLLYESNNKNSVA | KASTRES | QQYHRLPLP [Ctrl].
7.0 nM (6 of 6 replicates) for KLYQSFLYESRNKNSVA | EASTRES | QQYHRLPLS [GP_Gen].
2.1 nM (6 of 6 replicates) for KLSQSHLYESRMVNNVA | EASYRMD | QQYHRLPLS [GP_Gibbs].
nd (0 of 6 replicates) for KSSQMFLYESRNKNSVA | GASTRMS | QQYHRLTLS [Rand].
63 nM (6 of 6 replicates) for SLAMLLDQVYAKGANIA | NAAELVV | QQYYRLPLT [En_Gibbs].
3.1 nM (6 of 6 replicates) for RSSQSVLVEERNKNSVA | SASTRTS | QQYHRLPLS [Ctrl].
1.2 nM (6 of 6 replicates) for KLSQSVPYESRNKNSVA | NASTRED | QQYHRLPLS [GP_Gen].
4.0 nM (6 of 6 replicates) for KLQQSWLYLSRNHNAVA | QASQRCS | QDYHRLPLS [GP_Gibbs].
660 pM (6 of 6 replicates) for KLSQSVLYESRMKNSVA | DASTRCS | QQYHRLPLS [GP_HC].
nd (0 of 6 replicates) for KSSQSVLYESRNKNSVA | GASTRES | QQYHRLTLS [GPLM_HC].
5.2 nM (6 of 6 replicates) for KVMQSHLYESRNKNSVA | NASQRES | QQYHRLPLS [GP_Gen].
2.8 nM (6 of 6 replicates) for KSSQSVLYESGNKNSVA | EASQRES | QQYHRLPLS [GP_HC].
2.9 nM (6 of 6 replicates) for KLDQSWLYESRNKNSVA | NASTRMS | QQYHRLPLS [GP_Gen].
31 nM (6 of 6 replicates) for KSSQSVLYPSRNKNSVA | HASTRES | QQYHRLPLS [Ctrl].
170 nM (3 of 6 replicates) for KSLQSVLYESFNKNSVA | WASTRES | QQYHRLPLS [Ctrl].
990 pM (6 of 6 replicates) for KFQQSELYESRNKNSVA | NASTRES | QQYHRLPLS [GP_Gen].
42 nM (6 of 6 replicates) for KMKQSMEGNPKNWNSVA | DVESAKE | QQYARLPLM [En_Gibbs].
9.2 nM (6 of 6 replicates) for SMSWAHENGDNWMNSIA | DATHLAY | QQYSRLPIT [En_Gibbs].
110 nM (6 of 6 replicates) for QLSGPMMMESRNKNSVA | EFSTRGS | QQYHRLPLS [En_HC].

A selection of 7 entries from above:

| CDR-L1 | CDR-L2 | CDR-L3 | group | apparent Kd | replicates with signal |
|---|---|---|---|---|---|
| KLQQSMEYESRWHNSVA | HASVRLD | QQYHRLPLS | GP_Gibbs | 7.5 nM | 6 of 6 |
| HSSQSVLYESRNKNSVA | WASTRES | QQYHRLPLS | Ctrl | 530 nM | 2 of 6 |
| KFQQSELYESRNKNSVA | NASTRES | QQYHRLPLS | GP_Gen | 990 pM | 6 of 6 |
| KLDQSWLYESRNKNSVA | NASTRMS | QQYHRLPLS | GP_Gen | 2.9 nM | 6 of 6 |
| NLSWKTIMQNMDSYAVA | QTEQREA | QQYAILPLS | En_Gibbs | nd | 0 of 6 |
| RSSQSVLVEERNKNSVA | SASTRTS | QQYHRLPLS | Ctrl | 3.1 nM | 6 of 6 |
| KSSQSVLYESRNKNSVA | WASTREE | QQYHRLPLS | Ctrl | nd | 0 of 6 |

Three control strains display no target. For all light chain designs, 4% of the pairings with them gave a signal, with a median of 430 nM and one signal in twenty below 38 nM, so weak values seen in few replicates may be background. Of ten entries with the parent sequence, four were seen in most replicates (averages 2.2 nM to 240 nM), three in one and three in none, so single entries are noisy. The range of this assay differs from that of the first round, and the authors advise against merging the two.